## AlphaSeq binding of Ab-14 heavy chain variants to a spike HR2 peptide

Data: MIT Lincoln Laboratory AlphaSeq set, Li et al. 2023, doi:10.1038/s41467-023-39022-2, as distributed in FLAb.

The target is the same throughout: PDVDLGDISGINAS, from the HR2 region of SARS-CoV-2 spike.

Parent: Ab-14, a human scFv built as VH, a (GGGGS)3 linker, VL. Only the CDRs of the heavy chain vary.
VH: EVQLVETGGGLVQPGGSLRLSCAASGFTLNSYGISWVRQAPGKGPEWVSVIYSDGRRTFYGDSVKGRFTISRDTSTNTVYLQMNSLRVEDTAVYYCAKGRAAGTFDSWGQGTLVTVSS
VL: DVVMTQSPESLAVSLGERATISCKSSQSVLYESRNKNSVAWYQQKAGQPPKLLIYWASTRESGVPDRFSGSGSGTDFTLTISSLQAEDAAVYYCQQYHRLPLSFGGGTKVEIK

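The parent was found by panning a naive human phage display library on the peptide. The variants were designed computationally from a first round of random CDR variants and then made and measured. Their group label is 14H_En_HC (En: ensemble of fine-tuned language models; HC: hill climbing; a sequence that several methods proposed may carry one label only). In AlphaSeq, yeast of one mating type display the scFv and yeast of the other type display the target. Mating (16 h, 30 °C) was followed by selection of diploids and sequencing of their barcodes. The ratio of observed to expected reads was calibrated, replicate by replicate, on BCL2-family standards whose Kd was known from biolayer interferometry. The assay was run in six technical replicates.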

Each variant is given by its three heavy chain CDRs, as the data file delimits them; those of the parent are GFTLNSYGIS, VIYSDGRRTFYGDSVK, GRAAGTFDS.
Values are log10 of the apparent Kd in nM; lower means stronger binding.
Replicates are averaged; those with no signal do not enter the mean.
"nd" marks a missing value. The strain was present, yet no cells mated with the target were sequenced in that replicate, which points to weak or no binding.
The parent sequence was in this pool as ten entries: three were never detected, three once, and four in most replicates, with averages from 0.34 to 2.37.
Background: pairings of all heavy chain designs with three empty control strains gave a value in 1% of cases (median 2.08, 5th percentile 0.84). Values in that range, when seen in few replicates, are hard to tell from nonspecific mating. The control count says in how many pairings with the empty strains this scFv gave a signal.
The authors' rule: three or more of the six replicates give a measured affinity, fewer mean a poor binder.
Values of this round are not directly comparable with the first-round values of the same sequences.

Variant GFDLNEYGIS, VIYADGRRTAYSDSVK, GEAGGTFDQ showed -0.22, -0.17, 0.11, 0.21, 0.01, 0.75 (mean 0.11; controls 0 of 18).
Variant GFDLNEYGIS, VIYADGRRTSYKDSVK, GETAGTFDV showed nd, 1.14, 2.11, nd, 0.63, 1.09 (mean 1.24; controls 0 of 18).
Variant GFNLNEYGIS, VIYADGRRTFYSDSVK, GEQAGTFDV showed -0.42, -0.17, -0.54, -0.51, -0.56, -0.18 (mean -0.40; controls 0 of 18).
Variant GFDLNEYGIS, VIYADGRRTSYIDSVK, GENAGTFDV showed -0.67, -0.47, -0.27, -0.45, -0.60, -0.27 (mean -0.46; controls 0 of 18).
Variant GFNLNEYGIS, VIYADGRRTFYSNSVK, GEHAGTFDV showed -0.13, -0.47, -0.61, -0.67, -0.63, 0.16 (mean -0.39; controls 0 of 18).
Variant GFDLNEYGIS, VIYADGRRTAYSDSVK, GETGGTFDS showed -0.01, -0.05, -0.36, 0.10, -0.21, -0.03 (mean -0.09; controls 0 of 18).
Variant GFDLNEYGIS, VIYADGQRTAYADSVK, GKAAGTFDI showed -0.11, -0.50, 0.15, 0.23, -0.49, -0.28 (mean -0.17; controls 0 of 18).
Variant GFTLDEYGIS, VIYADGRRTFYADSVK, GTVAGTFDQ showed -0.20, -0.56, -0.69, -0.63, -0.71, -0.38 (mean -0.53; controls 0 of 18).
Variant GFDLNEYGIS, VIYADGRRTFYADSVK, GQLAGTFDA showed -0.49, -0.75, -0.60, -0.81, -0.83, -0.54 (mean -0.67; controls 1 of 18).
Variant GFDLNEYGIS, VIYADGRRTAYEDSVK, GEAAGTFDQ showed -0.45, -0.55, -0.59, -0.63, -0.61, -0.23 (mean -0.51; controls 0 of 18).
Variant GFDLDEYGIS, VIYADGRRTFYQDSVK, GNVAGTFDF showed -0.48, -0.34, -0.57, -0.37, -0.41, -0.21 (mean -0.40; controls 0 of 18).
Variant GFDLNEYGIS, VIYADGRRTFYADSVK, GNEAGTFNV showed -0.55, -0.47, -0.72, -0.50, -0.61, -0.52 (mean -0.56; controls 0 of 18).
Variant GFDLNEYGIS, VIYADGRRTFYADSVK, GNQAGTFID showed nd, nd, nd, nd, 2.91, nd (controls 0 of 18).
Variant GFDLNEYGIS, VIYADGVRTFYADSVK, GNAAGTFDS showed -0.06, -0.13, -0.03, -0.46, -0.34, 0.17 (mean -0.14; controls 0 of 18).
Variant GFDINEYGIS, VIYADGRRTAYADSVK, GNQAGTFDL showed 0.25, -0.28, 0.34, 0.64, 0.08, -0.08 (mean 0.16; controls 1 of 18).
Variant GFDLNEYGIS, VIYADGRRTFYTDNVK, GQVAGTFDV showed nd, nd, nd, nd, nd, nd (controls 0 of 18).
Variant GFDLNEYGIS, VIYADGRRTFYSDSVK, GAVAGTFDI showed -0.38, -0.82, -0.29, -0.80, -0.67, -0.66 (mean -0.60; controls 0 of 18).
Variant GFDLNEYGIS, VIYADGRRTQYADSVK, GNQAGTFDS showed -0.19, -0.41, -0.56, -0.61, -0.66, 0.06 (mean -0.39; controls 0 of 18).
Variant GFDLNEYGIS, VIYADGRRTFYADSVK, GNIAGTFDV showed -0.48, -0.76, -0.70, -0.77, -0.70, -0.63 (mean -0.67; controls 1 of 18).
Variant GFDLNEYGIS, VIYADGMRTFYADSVK, GQNAGTFDQ showed 0.97, 0.75, 0.51, 0.17, 0.60, 0.96 (mean 0.66; controls 0 of 18).
Variant GFDLDEYGIS, VIYADGKRTFYQDSVK, GQNAGTFDQ showed nd, -1.82, -1.78, -0.77, -1.29, -1.55 (mean -1.44; controls 0 of 18).
Variant GFNLNEYGIS, VIYADGRRTFYSDDVK, GEVAGTFDL showed -0.89, -1.12, -0.96, -0.86, -0.83, -0.43 (mean -0.85; controls 0 of 18).
Variant GFDLEEYGIS, VIYADGRRTFYTDSVK, GENAGTFDI showed -0.52, -0.33, -0.26, -0.30, -0.52, -0.02 (mean -0.33; controls 0 of 18).
Variant GFDLNEYGIS, VIYADGRRTFYSDSVK, GTNGGTFDV showed -0.11, -0.09, -0.12, -0.33, 0.06, -0.17 (mean -0.12; controls 0 of 18).
Variant GFDLNEYGIS, VIYADGRRTFYVDSVK, GQIAGTFDQ showed -0.20, -0.61, -0.53, -0.89, -0.66, -0.42 (mean -0.55; controls 1 of 18).
Variant GFDLNEYGIS, VIYADGRRTAYTDSVK, GDAAGTFDL showed -0.12, -0.12, -0.21, 0.23, -0.34, 0.91 (mean 0.06; controls 0 of 18).
Variant GFDLNEYGIS, VIYADGKRTFYSDSVK, GEIAGTFDQ showed -0.42, -0.78, -0.62, -0.74, -0.92, -0.34 (mean -0.64; controls 0 of 18).
Variant GFDLSEYGIS, VIYADGRRTFYTDSVK, GEVAGTFDE showed 0.56, -0.16, -0.41, -0.53, -0.38, -0.23 (mean -0.19; controls 1 of 18).
Variant GFELDEYGIS, VIYADGRRTFYQDSVK, GEVAGTFDV showed -0.02, -0.25, -0.16, -0.32, -0.35, -0.16 (mean -0.21; controls 0 of 18).
Variant GFDLESYGIS, VIYADGRRTFYADKVK, GGNAGTFDI showed 0.16, -0.62, -1.02, -0.77, -0.73, -0.40 (mean -0.56; controls 0 of 18).
Variant GFNLDEYGIS, VIYADGRRTFYADSVK, GQVAGTFDV showed 0.97, -0.05, -0.27, -0.52, -0.41, 0.22 (mean -0.01; controls 0 of 18).
Variant GFDLNEYGIS, VIYADGRRTAYSDSVK, GENAGFFDS showed nd, nd, nd, nd, nd, 2.12 (controls 0 of 18).
Variant GFDLNEYGIS, VIYADGRRTFYSDSVK, GAVAGTFDS showed -0.19, -0.60, -0.60, -0.91, -0.53, -0.32 (mean -0.52; controls 1 of 18).
Variant GFDLNEYGIS, VIYADGRRTFYADSVK, GQAAGTFTL showed 0.85, 0.58, 0.84, 0.49, 0.38, 1.01 (mean 0.69; controls 0 of 18).
Variant GFDLNEYGIS, VIYADGMRTFYQDSVK, GEIAGTFDQ showed -0.12, -0.22, -0.27, 0.06, -0.22, -0.07 (mean -0.14; controls 0 of 18).
Variant GFSLDEYGIS, VIYADGRRTFYADSVK, GNVAGTFDE showed -0.10, -0.51, -0.50, -0.63, -0.07, -0.41 (mean -0.37; controls 0 of 18).
Variant GFDLNEYGIS, VIYADGVRTFYSDSVK, GNVGGSFDV showed 0.67, 0.08, -0.12, 0.40, 0.16, 0.31 (mean 0.25; controls 0 of 18).
Variant GFDLDEYGIS, VIYADGRRTFYADSVK, GELAGTFFQ showed -0.85, -1.11, -0.73, -0.22, -0.44, nd (mean -0.67; controls 0 of 18).
Variant GFDLDEYGIS, VIYADGRRTFYTDSVK, GTNAGTFDV showed 0.41, 0.13, -0.24, 0.22, 0.24, 1.15 (mean 0.32; controls 0 of 18).
Variant GFDLNEYGIS, VIYADGKRTAYADSVK, GKVAGTFDS showed 0.06, -0.31, 0.07, -0.34, -0.49, 0.52 (mean -0.08; controls 1 of 18).
Variant GFDLNEYGIS, VIYADGQRTFYADSVK, GQIAGTFDQ showed -0.67, -0.55, -1.20, -0.77, -0.93, -0.43 (mean -0.76; controls 0 of 18).
Variant GFDLNEYGIS, VIYADGRRTFYADSVK, GEAAGTFDL showed -0.09, -0.18, -0.49, -0.60, -0.34, -0.27 (mean -0.33; controls 0 of 18).
Variant GFNLDEYGIS, VIYADGRRTFYADSVK, GEVAGTFDS showed -0.10, -0.39, 0.18, -0.90, -0.56, -0.20 (mean -0.33; controls 0 of 18).
Variant GFDLNEYGIS, VIYADGRRTFYIDSVK, GTNAGTFDD showed -0.50, -0.59, -0.67, -0.95, -0.50, -0.66 (mean -0.64; controls 0 of 18).
Variant GFDLNEYGIS, VIYADGKRTFYSDSVK, GEIAGTFDS showed -0.05, -0.27, -0.78, -0.28, -0.62, -0.48 (mean -0.41; controls 0 of 18).
Variant GFDLNEYGIS, VIYADGKRTFYSDDVK, GNAAGTFDS showed 0.16, -0.11, -0.45, -0.55, -0.71, -0.41 (mean -0.34; controls 0 of 18).
Variant GFNLDEYGIS, VIYADGRRTFYQDSVK, GEGAGTFDQ showed nd, nd, nd, nd, nd, nd (controls 0 of 18).
Variant GFNLNEYGIS, VIYADGRRTFYADSVK, GEAAGTFDE showed 0.27, 0.83, 0.07, 0.34, 0.72, 0.24 (mean 0.41; controls 2 of 18).

Extract of 6 entries:

GFDLNEYGIS, VIYADGVRTFYSDSVK, GNVGGSFDV: 0.67, 0.08, -0.12, 0.40, 0.16, 0.31 (mean 0.25; controls 0 of 18).
GFDLNEYGIS, VIYADGRRTAYSDSVK, GETGGTFDS: -0.01, -0.05, -0.36, 0.10, -0.21, -0.03 (mean -0.09; controls 0 of 18).
GFDLNEYGIS, VIYADGRRTAYSDSVK, GEAGGTFDQ: -0.22, -0.17, 0.11, 0.21, 0.01, 0.75 (mean 0.11; controls 0 of 18).
GFDLNEYGIS, VIYADGKRTAYADSVK, GKVAGTFDS: 0.06, -0.31, 0.07, -0.34, -0.49, 0.52 (mean -0.08; controls 1 of 18).
GFELDEYGIS, VIYADGRRTFYQDSVK, GEVAGTFDV: -0.02, -0.25, -0.16, -0.32, -0.35, -0.16 (mean -0.21; controls 0 of 18).
GFDLNEYGIS, VIYADGKRTFYSDSVK, GEIAGTFDQ: -0.42, -0.78, -0.62, -0.74, -0.92, -0.34 (mean -0.64; controls 0 of 18).